The test addresses Adrenergic receptor alpha-2 (Rattus norvegicus, UniProt P22086+P19328+P22909). Description: Displacement of [3H]clonidine from alpha2 adrenergic receptor in rat cerebral cortex by liquid scintillation method. The class given is tissue-based. For orientation: In a radioligand displacement assay an active substance lowers the binding of a labelled ligand.

Sequences of proteins named here, by UniProt entry; tags and fusion partners are left off. A change or cut given only in a name is not applied to a line headed by its entry.
UniProt P22086: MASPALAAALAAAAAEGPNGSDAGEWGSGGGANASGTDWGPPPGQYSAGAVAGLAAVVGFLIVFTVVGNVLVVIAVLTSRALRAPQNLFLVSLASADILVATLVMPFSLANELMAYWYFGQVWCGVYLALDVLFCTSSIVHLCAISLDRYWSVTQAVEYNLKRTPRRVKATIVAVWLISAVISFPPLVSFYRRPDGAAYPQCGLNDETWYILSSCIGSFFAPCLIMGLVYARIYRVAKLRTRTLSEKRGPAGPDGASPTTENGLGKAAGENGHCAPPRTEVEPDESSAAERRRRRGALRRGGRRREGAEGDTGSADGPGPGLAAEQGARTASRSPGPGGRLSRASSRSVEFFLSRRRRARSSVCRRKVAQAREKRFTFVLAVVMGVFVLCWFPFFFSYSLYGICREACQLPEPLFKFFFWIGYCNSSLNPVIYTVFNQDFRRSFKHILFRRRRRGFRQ
UniProt P19328: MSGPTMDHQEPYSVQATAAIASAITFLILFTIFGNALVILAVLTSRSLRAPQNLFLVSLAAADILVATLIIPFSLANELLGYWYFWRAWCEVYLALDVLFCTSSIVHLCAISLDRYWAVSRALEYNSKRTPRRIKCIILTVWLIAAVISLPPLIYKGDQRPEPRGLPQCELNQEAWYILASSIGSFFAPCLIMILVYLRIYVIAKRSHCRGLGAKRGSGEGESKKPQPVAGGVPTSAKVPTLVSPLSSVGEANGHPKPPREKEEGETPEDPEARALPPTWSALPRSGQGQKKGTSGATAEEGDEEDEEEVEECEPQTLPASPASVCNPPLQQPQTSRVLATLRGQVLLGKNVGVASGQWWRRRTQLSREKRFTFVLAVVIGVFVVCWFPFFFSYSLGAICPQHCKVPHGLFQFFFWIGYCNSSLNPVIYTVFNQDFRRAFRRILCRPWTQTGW
UniProt P22909: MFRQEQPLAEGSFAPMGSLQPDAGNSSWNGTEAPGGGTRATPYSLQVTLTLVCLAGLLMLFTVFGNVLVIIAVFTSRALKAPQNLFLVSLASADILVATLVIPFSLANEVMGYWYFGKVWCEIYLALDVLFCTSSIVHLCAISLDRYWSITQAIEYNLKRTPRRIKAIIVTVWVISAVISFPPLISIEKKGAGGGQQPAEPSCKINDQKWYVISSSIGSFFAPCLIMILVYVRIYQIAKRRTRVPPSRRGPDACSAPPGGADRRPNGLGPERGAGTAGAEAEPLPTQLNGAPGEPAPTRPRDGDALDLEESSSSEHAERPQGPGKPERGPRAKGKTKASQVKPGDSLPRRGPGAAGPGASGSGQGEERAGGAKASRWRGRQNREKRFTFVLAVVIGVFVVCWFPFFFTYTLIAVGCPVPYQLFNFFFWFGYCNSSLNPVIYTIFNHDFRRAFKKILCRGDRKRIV

The structures appear in SMILES notation.

Experimental findings from ChEMBL document CHEMBL1153880, “Synthesis and adrenolytic activity of 1-(1H-indol-4-yloxy)-3-{[2-(2-methoxyphenoxy)ethyl]amino}propan-2-ol and its enantiomers. Part 1” (Eur J Med Chem, 2009) are described below.

The term Ki denotes a dissociation constant, usually derived from enzyme kinetics or from competition with a known ligand.

As to `COc1ccccc1OCCNCC(O)COc1cccc2[nH]c3ccccc3c12` (stereo unspecified) [CARVEDILOL], the Ki is reported as 3.4 nM.
